From PMC8536600, “Ruxolitinib exposure in patients with acute and chronic graft versus host disease in routine clinical practice—a prospective single-center trial” (Cancer Chemotherapy and Pharmacology, 2021)

Legend:
[1] = cited from earlier work
[2] = Clinical and laboratory adverse events (CTCAE v5.0) in relation to Ruxolitinib trough serum concentration; format: in vivo, human
Description: Adverse events (AE) were registered by questioning patients at each sampling time point. Patients were specifically asked for AE occurring in ≥ 1/100 patients according to the prescribing information. Clinical AE were graded according to the […] (CTCAE) Version 5.0 [26]. Further recorded patient data included age, sex, height, weight, ethnicity, smoking status, dosing regimen, and comedication. Relevant laboratory parameters were recorded in parallel to blood sampling (estimated glomerular filtration rate (eGFR), serum creatinine, serum albumin, total cholesterol, total bilirubin, hemoglobin, white blood cell count, absolute neutrophil count, platelet count, aspartate, and alanine aminotransferase).
Data were collected and processed using Microsoft Excel 2016 Version 16.0 (Microsoft Corporation, Redmond, WA, USA). Statistical calculations and visualization of results were performed with R Studio Version 1.2.5042 (RStudio Incorporation, Boston, MA, USA) and running R version 4.0.5 (R Foundation for Statistical Computing, Vienna, Austria, 2020). To reduce bias caused by the unbalanced number of samples per patient, all Ruxolitinib trough serum concentrations of the same patient at the same dosage were summarized into an individual mean trough serum concentration for descriptive statistical analysis. […]

N#CC[C@H](C1CCCC1)n1cc(-c2ncnc3[nH]ccc23)cn1 [Ruxolitinib]
Median Css min ([1]; 33 samples of 19 patients, underlying disease and dosing regimen unknown): 11 ng/mL
Css min ([1]; eight healthy individuals, 30 mg daily): approximately 20 ng/mL
Css min ([1]; one MF patient, 5 mg daily): 15.8 ng/mL
Trough serum concentration threshold (optimal cut-off, Youden's Index) from ROC analysis ([2]; risk to experience at least 3 AE of CTCAE grade 1 or higher): 21.1 ng/mL
Odds ratio to experience at least three AE of any grade ([2]; trough concentrations above 21.1 ng/mL, 90% confidence interval 3.3-21.4): 8.8

Where two headings read alike, the source gives them in different places.
